2 compounds from patent US9771352B2, “Hydroxyalkyl-substituted phenyltriazole derivatives and uses thereof” (BAYER PHARMA AKTIENGESELLSCHAFT, priority 2014, dated 2017) can be followed below.

The subject of the assay is conscious rats. As to the kind of experiment: Diuresis investigations in conscious rats kept in metabolism cages. Conditions: comparative examples of WO 2011/104322 (Table 2B).

`NC(=O)Cn1nc(Cn2nc(-c3ccc(Cl)cc3)n(C[C@H](O)C(F)(F)F)c2=O)nc1-c1ccccc1Cl`: the Urinary volume runs as follows: (dosage p.o. 0.3 mg/kg) 87 % vs. control = 100%; (dosage p.o. 3.0 mg/kg) 121 % vs. control = 100%.

As to `COC(=O)Cn1nc(Cn2nc(-c3ccc(Cl)cc3)n(C[C@H](O)C(F)(F)F)c2=O)nc1-c1ccccc1Cl`, the Urinary volume runs as follows: (dosage p.o. 0.3 mg/kg) 128 % vs. control = 100%; (dosage p.o. 3.0 mg/kg) 85 % vs. control = 100%.
